Our source for the solubility values is US9120727B2, “Process for the preparation of pleuromutilins” (NABRIVA THERAPEUTICS AG, priority 2010, dated 2015).

The nature of this series: Solubility of crystalline salts in water, aqueous vehicles and biorelevant media. The class given is physicochemical. Particulars: 0.9% NaCl solution, FaSSIF and FeSSIF.

Regarding “14-O-{[(1R,2R,4R)-4-Amino-2-hydroxy-cyclohexyl-sulfanyl]-acetyl}-mutilin acetate”, the solubility result was “surprisingly high”.
